Results from US9243019B2 (priority 2013, dated 2016).

System: acute cerebral ischemia
Settings: positive control group, 24 h, TTC

## COCCOC(=O)C1=C(C)NC(C)=C(C(=O)OC(C)C)C1c1cccc([N+](=O)[O-])c1 (stereo not shown) [nimodipine]
  cerebral infarction area: 15.4%
